The source of these data is ChEMBL document CHEMBL4680248 (Eur J Med Chem, 2020).

The target in this assay is T1, GABA-A receptor; alpha-1/beta-3/gamma-2 (Homo sapiens, UniProt P14867+P18507+P28472).
T1 sequence (P14867 whole entry): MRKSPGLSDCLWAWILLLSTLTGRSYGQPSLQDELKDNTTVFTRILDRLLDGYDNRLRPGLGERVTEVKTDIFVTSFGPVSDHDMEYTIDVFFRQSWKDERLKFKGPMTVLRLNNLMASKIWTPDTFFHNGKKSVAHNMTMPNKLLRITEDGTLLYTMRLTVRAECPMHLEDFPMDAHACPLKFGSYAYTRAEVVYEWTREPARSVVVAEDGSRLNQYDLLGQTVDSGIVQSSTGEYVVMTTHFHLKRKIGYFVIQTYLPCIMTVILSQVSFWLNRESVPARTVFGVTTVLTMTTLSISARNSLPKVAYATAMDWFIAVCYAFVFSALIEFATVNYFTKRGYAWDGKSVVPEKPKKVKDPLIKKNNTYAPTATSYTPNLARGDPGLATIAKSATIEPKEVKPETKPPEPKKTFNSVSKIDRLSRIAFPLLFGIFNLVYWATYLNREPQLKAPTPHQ
T1 sequence (P18507 whole entry): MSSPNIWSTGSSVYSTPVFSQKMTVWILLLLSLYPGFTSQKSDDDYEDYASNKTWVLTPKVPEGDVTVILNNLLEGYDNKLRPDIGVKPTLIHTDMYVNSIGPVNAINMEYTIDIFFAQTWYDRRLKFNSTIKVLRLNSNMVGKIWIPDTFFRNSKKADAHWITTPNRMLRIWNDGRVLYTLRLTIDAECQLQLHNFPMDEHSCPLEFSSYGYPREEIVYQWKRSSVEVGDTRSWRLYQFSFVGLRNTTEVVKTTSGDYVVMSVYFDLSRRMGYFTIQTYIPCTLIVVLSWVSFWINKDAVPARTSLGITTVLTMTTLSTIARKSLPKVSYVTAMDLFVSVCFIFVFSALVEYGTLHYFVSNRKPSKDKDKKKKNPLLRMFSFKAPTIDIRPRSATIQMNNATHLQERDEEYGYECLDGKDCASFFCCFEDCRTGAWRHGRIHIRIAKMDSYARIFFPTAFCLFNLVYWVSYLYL
T1 sequence (P28472 whole entry): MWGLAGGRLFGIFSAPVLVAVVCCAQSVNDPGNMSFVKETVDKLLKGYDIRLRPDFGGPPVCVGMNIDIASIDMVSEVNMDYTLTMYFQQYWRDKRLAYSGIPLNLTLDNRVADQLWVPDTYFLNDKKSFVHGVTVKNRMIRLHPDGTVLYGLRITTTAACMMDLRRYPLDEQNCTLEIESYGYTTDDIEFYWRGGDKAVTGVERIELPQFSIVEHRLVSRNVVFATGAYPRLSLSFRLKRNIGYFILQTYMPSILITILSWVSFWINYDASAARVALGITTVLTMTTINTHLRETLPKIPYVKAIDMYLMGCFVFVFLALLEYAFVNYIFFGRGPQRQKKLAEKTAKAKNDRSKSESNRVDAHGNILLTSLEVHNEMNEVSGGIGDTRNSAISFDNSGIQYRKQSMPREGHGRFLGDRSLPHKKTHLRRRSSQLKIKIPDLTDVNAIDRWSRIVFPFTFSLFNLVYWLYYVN
The experiment in a line: Inhibition of [3H]pTFD-di-iPr-BnOH labelling of GABAA alpha1beta3gamma2L (unknown origin) expressed in Xenopus laevis oocytes assessed as reduction in photoincorporation at beta subunit measured after 30 mins in presence of GABA by liquid scintillation counting method. The class given is cell-based.

As a reminder, the IC50 is the concentration at which inhibition is half-maximal.

For the compound `C=CCC1(c2cccc(C3(C(F)(F)F)N=N3)c2)C(=O)NC(=O)N(C)C1=O` (stereo unspecified), the IC50 is 400 nM.
